From PubChem BioAssay AID720508 (The Scripps Research Institute Molecular Screening Center, 2013) come the findings set out here.

Sequences of proteins named here, by UniProt entry; tags and fusion partners are left off.
UniProt P02675, whole entry, looked up: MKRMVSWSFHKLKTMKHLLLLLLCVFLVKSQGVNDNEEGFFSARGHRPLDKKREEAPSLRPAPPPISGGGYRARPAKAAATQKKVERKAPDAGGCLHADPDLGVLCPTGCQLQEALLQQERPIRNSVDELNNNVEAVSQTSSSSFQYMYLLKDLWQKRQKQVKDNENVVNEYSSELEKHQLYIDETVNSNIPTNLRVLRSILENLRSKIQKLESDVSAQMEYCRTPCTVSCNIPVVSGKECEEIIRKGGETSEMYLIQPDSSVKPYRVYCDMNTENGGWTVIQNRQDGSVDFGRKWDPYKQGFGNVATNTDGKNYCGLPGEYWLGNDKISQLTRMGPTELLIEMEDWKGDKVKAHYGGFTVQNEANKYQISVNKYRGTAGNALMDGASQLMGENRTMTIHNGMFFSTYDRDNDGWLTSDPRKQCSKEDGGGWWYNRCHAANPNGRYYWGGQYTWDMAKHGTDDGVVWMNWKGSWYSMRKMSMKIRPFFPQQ

Molecules are shown by their SMILES. Only a part is listed here, and it is no random draw. Active and inactive are the calls of the source.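 The calls were made as follows: active = inhibition above the mean of compounds falling within the control limits plus 3 SD of them (cut at about 14% in these data); inactive = the rest.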

Broadly, the inhibition is the relative decrease from the control value, in per cent.

The target in this test is Fibrinogen beta chain (Homo sapiens) (UniProt P02675). Description: inhibitors of Tn7 peptide binding to fibrin DD(E), primary screen, biochemical, fluorescence polarization, human fibrin, Tn7 probe (AID 720508).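 Also: 0% = plate median of compound wells and 100% = 10 µM Aha-Tn7 peptide.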 The settings on record: FP displacement of FITC-Tn7 peptide from fibrin DD(E); at 8.3 µM; hits give high values; 0% = median of compound wells per plate. (Polarisation of emitted light reports the rotation of a fluorescent probe.)
Take `NC(=O)Nc1ccc([As](=O)(O)O)cc1`: the inhibition is inactive: 11.8%.
